Properties, as collected for the OPERA models

Melting points are in °C. Boiling points are in °C, nominally at 760 mmHg. logP is the log10 of the octanol-water partition coefficient; higher is more lipophilic. Water solubility is log10 of mol/L, nominally at 25 °C; higher is more soluble. Vapor pressure is log10 of mmHg; the set covers 15 to 30 °C, mostly 20 to 25 °C. Henry's law constant (air-water partitioning) is log10 of atm·m3/mol, nominally at 25 °C. The unbound fraction in human plasma runs from 0 (all bound) to 1 (all free). Intrinsic clearance (human, µL/min per 10^6 hepatocytes): higher is faster turnover, and 0 stands for none detected.

The entry for CC(=O)[O-].CC[P+](c1ccccc1)(c1ccccc1)c1ccccc1 [Ethyltriphenylphosphonium acetate] lists melting point 79.8 °C and log VP -7.782 (log10 mmHg). CCOC(=O)CSc1nc(C(C)(C)C)nn1C(=O)N(C)C [Triazamate] is reported with boiling point 280 °C and Henry's law constant -9.353 (log10 atm·m3/mol). CC=CC=C1C(C)=CC(=O)CC1(C)C [Tabanone] is reported with melting point -59.2 °C and logP 3.11 and water solubility -2.722 (log10 mol/L) and log VP -1.153 (log10 mmHg). For CCC=C(C)C(O)CCCCC (centres undefined) [4-Methyl-3-decen-5-ol] the data give logP 3.9 and water solubility -3.432 (log10 mol/L) and log VP -2.084 (log10 mmHg). CCOC(=O)CCN(C(=O)c1ccc(NC)c(N)c1)c1ccccn1 has logP 1.37 and water solubility -2.316 (log10 mol/L). For Brc1ccc(Oc2cccc(Br)c2)cc1 [1-Bromo-3-(4-bromophenoxy)benzene] the data give melting point 20 °C and log VP -4.073 (log10 mmHg). For C=C(C)C(=O)OCCOCC [2-Ethoxyethyl methacrylate] the data give logP 1.8 and log VP -1.01 (log10 mmHg). Listed for C=CC(C)(C#CC1(O)C(C)=C2OC(C)OC2CC1(C)C)OC(C)OCC (centres undefined): melting point -17 °C and logP 3.37 and water solubility -2.607 (log10 mol/L) and log VP -5.824 (log10 mmHg).

The entry for CCCCOc1ccccc1 [Butyl phenyl ether] lists logP 4.26 and water solubility -3.613 (log10 mol/L). O=P(Oc1ccccc1)(Oc1ccccc1)O[C@H]1CO[C@H]2[C@@H]1OC[C@H]2OP(=O)(Oc1ccccc1)Oc1ccccc1 [1,4:3,6-Dianhydro-2,5-bis-O-(diphenoxyphosphoryl)-D-glucitol] has logP 3.3 and water solubility -6.309 (log10 mol/L). O=C(OCC1CO1)c1ccc(C(=O)OCC2CO2)cc1 (centres undefined) [Bis[(oxiran-2-yl)methyl] benzene-1,4-dicarboxylate] has logP 1.7 and water solubility -3.558 (log10 mol/L) and log VP -6.294 (log10 mmHg). The entry for C=C(C)C(=O)OCCCCCCOc1ccc(/C=C/C(=O)OC)cc1 lists melting point 52.25 °C and boiling point 272.3 °C and logP 5.182 and water solubility -8.062 (log10 mol/L) and log VP -7.877 (log10 mmHg). COC(=O)c1ccc(I)cc1S(=O)(=O)[N-]C(=O)Nc1nc(C)nc(OC)n1.[Na+] [Iodosulfuron-methyl-sodium] is reported with water solubility -1.33 (log10 mol/L) and fraction unbound 0.007447. CC1=CC(C)OC(C(C)c2ccccc2)C1 (centres undefined) is reported with logP 3.9 and water solubility -4.08 (log10 mol/L) and log VP -0.678 (log10 mmHg). The entry for Clc1cc(Cl)c(Oc2ccccc2)cc1Cl [2,4,5-trichlorodiphenyl ether] lists melting point 61 °C and water solubility -6.58 (log10 mol/L). O=C1NCCN1CCO [Hydroxyethyl imidazolidinone] has boiling point 280 °C and log VP -5.011 (log10 mmHg).

COC(=O)/C=C(\C)C=O [Methyl (E)-3-methyl-4-oxobut-2-enoate] has boiling point 181.2 °C and log VP -0.223 (log10 mmHg). For C=CC(=O)OCCn1c(=O)n(CCOC(=O)C=C)c(=O)n(CCOC(=O)C=C)c1=O the data give logP 1.92 and water solubility -2.451 (log10 mol/L). For C[SiH](O[Si](C)(C)C)O[Si](C)(C)C [1,1,1,3,5,5,5-Heptamethyltrisiloxane] the data give water solubility -7.046 (log10 mol/L) and log VP 0.803 (log10 mmHg). CCCCC/C=C/CCC=O [4-Decenal, (4E)-] is reported with water solubility -3.302 (log10 mol/L) and log VP -1.018 (log10 mmHg). Listed for CCCCCCCCCCCCCCC(C)c1cc(C)cc(C)c1O (centres undefined) [2-(Hexadecan-2-yl)-4,6-dimethylphenol]: melting point -14.3 °C and log VP -6.202 (log10 mmHg). Listed for CNCCCC1c2ccccc2C=Cc2ccccc21 [Protriptyline]: melting point 170 °C and logP 4.7 and water solubility -6.057 (log10 mol/L) and fraction unbound 0.08. CC(C)COCC(CN(Cc1ccccc1)c1ccccc1)N1CCCC1 (centres undefined) [Bepridil] has logP 5.2 and water solubility -4.748 (log10 mol/L) and intrinsic clearance 2 µL/min/10^6 cells. The entry for O=C1c2ccccc2C(=O)c2c(NCCCOCCOCCO)ccc(NCCCOCCOCCO)c21 lists logP 2.61 and log VP -7.459 (log10 mmHg).

COc1ccc(OC)c(Cl)c1 [2-Chloro-1,4-dimethoxybenzene] is reported with water solubility -2.672 (log10 mol/L) and log VP -3.612 (log10 mmHg). Listed for COC1(OC)CCCCCCCCCCC1 [1,1-Dimethoxycyclododecane]: melting point 6.9 °C and logP 4.65 and water solubility -4.126 (log10 mol/L) and log VP -0.862 (log10 mmHg). The entry for OC1(c2ccc(-c3ccc(C4(O)c5ccccc5-c5ccccc54)cc3)cc2)c2ccccc2-c2ccccc21 lists melting point 315.9 °C and logP 4.88 and water solubility -8.41 (log10 mol/L). N#CCC(=O)OCC(COC(=O)CC#N)(COC(=O)CC#N)COC(=O)CC#N has melting point 177.6 °C and logP 1.5. Listed for Brc1cccc(Oc2ccc(Br)c(Br)c2)c1 [BDE-35]: melting point 20 °C and logP 5.52 and log VP -4.983 (log10 mmHg). The entry for COc1ccc(NC(=O)c2cc3ccccc3cc2O)cc1 [2-Naphthalenecarboxamide, 3-hydroxy-N-(4-methoxyphenyl)-] lists melting point 233 °C and logP 2.9 and water solubility -5.263 (log10 mol/L). For CCCCCCCCCCCCCCOC(=O)/C=C/C(=O)OCCCCCCCCCCCCCC [2-Butenedioic acid (2E)-, 1,4-ditetradecyl ester] the data give melting point 45 °C and water solubility -7.008 (log10 mol/L).

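These are experimental values that the OPERA curators gathered from public databases to train and test their QSAR models. One number stands for a compound and property, with no spread given. Method, purity and exact conditions of the single measurements are not given. The measured form (salt, isomer or mixture) is not always the one drawn. Some entries may be limits or estimates that an upstream database listed as plain numbers.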

Values as listed in the OPERA 2.9 repository of K. Mansouri.